Data published in patent US8673906B2, “Chromenone derivatives” (AstraZeneca AB, priority 2010, dated 2014).
pIC50: −log10 of the molar value. Where two headings read alike, the source gives them in different places.

The chains behind the UniProt entries cited, without tags or fusion partners. Where a name states a change or a piece, a line headed by the entry shows the natural chain unless it says otherwise.
UniProt P42338: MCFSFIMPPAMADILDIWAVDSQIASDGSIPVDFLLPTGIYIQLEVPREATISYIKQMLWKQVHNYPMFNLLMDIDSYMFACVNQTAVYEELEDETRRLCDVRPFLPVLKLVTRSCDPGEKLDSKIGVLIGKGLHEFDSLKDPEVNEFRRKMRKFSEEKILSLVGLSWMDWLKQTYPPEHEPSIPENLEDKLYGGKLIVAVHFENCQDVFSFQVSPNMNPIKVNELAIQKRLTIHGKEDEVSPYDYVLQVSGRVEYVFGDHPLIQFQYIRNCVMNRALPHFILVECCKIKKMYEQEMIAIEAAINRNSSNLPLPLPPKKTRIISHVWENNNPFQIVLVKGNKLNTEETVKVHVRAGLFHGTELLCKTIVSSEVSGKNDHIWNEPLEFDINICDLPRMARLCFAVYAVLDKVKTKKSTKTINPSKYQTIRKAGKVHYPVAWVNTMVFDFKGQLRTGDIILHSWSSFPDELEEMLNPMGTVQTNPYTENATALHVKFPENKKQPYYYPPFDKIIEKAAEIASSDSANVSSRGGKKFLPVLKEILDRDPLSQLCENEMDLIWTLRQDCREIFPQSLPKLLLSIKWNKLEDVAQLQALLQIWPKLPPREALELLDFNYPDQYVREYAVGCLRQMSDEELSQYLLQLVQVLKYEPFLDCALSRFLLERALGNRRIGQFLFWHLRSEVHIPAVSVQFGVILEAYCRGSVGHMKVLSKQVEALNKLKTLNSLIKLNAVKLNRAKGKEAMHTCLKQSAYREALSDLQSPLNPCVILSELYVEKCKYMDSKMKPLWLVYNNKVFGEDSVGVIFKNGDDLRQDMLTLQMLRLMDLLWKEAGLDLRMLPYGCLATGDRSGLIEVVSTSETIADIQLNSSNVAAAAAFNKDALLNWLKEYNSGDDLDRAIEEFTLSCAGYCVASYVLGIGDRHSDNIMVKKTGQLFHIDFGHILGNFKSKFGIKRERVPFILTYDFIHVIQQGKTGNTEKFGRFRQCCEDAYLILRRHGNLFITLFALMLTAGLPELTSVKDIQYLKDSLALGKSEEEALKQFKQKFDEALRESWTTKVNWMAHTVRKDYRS

Molecular target: PI3Kβ (Homo sapiens (Human), UniProt P42338)
Assay: In vitro enzyme inhibition assay (Kinase Glo based enzyme activity assay)
Assay type: biochemical
Details: for pIC50: Test (a)
Method: (a) In Vitro Enzyme Inhibition Assay
The inhibition of PI3Kβ, PI3Kα, PI3Kγ and PI3Kδ was evaluated in a Kinase Glo based enzyme activity assay using human recombinant enzymes. The assay measures depletion of ATP after incubation with enzyme, PIP2 and ATP plus compound. ATP at the end of the reaction is detected by addition of Kinase Glo reagent, in this the Ultra Glo™ luciferase (Promega) uses the ATP as a substrate to catalyze the mono-oxygenation of luciferin and the generation of light. A direct relationship exists between the luminescence measured with the Kinase-Glo Plus Reagent and the amount of ATP remaining in a completed kinase reaction and luminescence is inversely related to kinase activity. Twelve different compound concentrations were tested and raw data from the inhibition of PI3 Kb, PI3Kα, PI3Kγ and PI3Kδ was plotted versus inhibitor concentration.
Compounds in 100% DMSO were added to assay plates by acoustic dispensing. PI3Kβ was added in a Tris buffer (50 mM Tris pH7.4, 0.05% CHAPS, 2.1 mM DTT, and 10 mM MgCl2) and allowed to preincubate with compound for 20 minutes prior to addition of substrate solution containing PIP2 and ATP. The enzyme reaction was stopped after 80 minutes by the addition of Kinase Glo detection solution. Plates were left for 30 minutes at room temperature then read on a Pherastar Instrument (Luminescence ATP 384 program) setting gain on max well. The final concentration of DMSO, ATP and PIP2 in the assay were, 1%, 80 μM, and 80 μM respectively.
IC50 values were calculated using a log curve fitting to a non-linear regression package, fitting raw data to inhibitor concentration.

[1] = approximate value, read-out: IC50 versus PI3Kβ
[2] = human recombinant enzyme, read-out: PI3Kβ inhibition, IC50

Compound | pIC50 [1] | pIC50 [2] | activity of enantiomer relative to the other enantiomer (PI 3-kinase inhibitory activity, (+) versus (−) enantiomer of Example 3.06)
CC(Nc1cc(F)cc(C#N)c1)c1cc(C(=O)N(C)C)cc2c(=O)cc(N3CCOCC3)oc12 (centres unmarked) [Example 3.17, 8-(1-(3-cyano-5-fluorophenylamino)ethyl)-N,N-dimethyl-2-morpholino-4-oxo-4H-chromene-6-carboxamide] | – | 8.22 | –
CC(c1cc(C(=O)N(C)C)cc2c(=O)cc(N3CCOCC3)oc12)N(C)c1cc(F)cc(F)c1 (single isomer, unassigned) [Example 5.0b, 8-(1-((3,5-difluorophenyl)(methyl)amino)ethyl)-N,N-dimethyl-2-morpholino-4-oxo-4H-chromene-6-carboxamide] | – | 5.91 | –
CC(Nc1cc(F)cc(Cl)c1)c1cc(C(=O)N(C)C)cc2c(=O)cc(N3CCOCC3)oc12 (centres unmarked) [Example 3.14, 8-(1-(3-chloro-5-fluorophenylamino)ethyl)-N,N-dimethyl-2-morpholino-4-oxo-4H-chromene-6-carboxamide] | – | 8.40 | –
CC(Nc1cc(F)cc(F)c1)c1cc(C(=O)N(C)C)cc2c(=O)cc(N3CCOCC3)oc12 (single isomer, unassigned) [Example 3.06a, 8-(1-(3,5-difluorophenylamino)ethyl)-N,N-dimethyl-2-morpholino-4-oxo-4H-chromene-6-carboxamide] | – | 5.43 | weaker activity
CC(Nc1cc(F)cc(F)c1)c1cc(C(=O)N2CCC2)cc2c(=O)cc(N3CCOCC3)oc12 (centres unmarked) [Example 4.08, 6-(azetidine-1-carbonyl)-8-(1-(3,5-difluorophenylamino)ethyl)-2-morpholino-4H-chromen-4-one] | – | 8.30 | –
CC(Nc1cc(F)cc(F)c1)c1cc(C(=O)N(C)C)cc2c(=O)cc(N3CCOCC3)oc12 (single isomer, unassigned; (-)) [Example 3.06b, (−)-8-(1-(3,5-difluorophenylamino)ethyl)-N,N-dimethyl-2-morpholino-4-oxo-4H-chromene-6-carboxamide] | ~8.70 | 8.70 | –

Second part, the molecule after the results:

pIC50 [1] | pIC50 [2] | activity of enantiomer relative to the other enantiomer (PI 3-kinase inhibitory activity, (+) versus (−) enantiomer of Example 3.06) | Compound
~8.22 | 8.22 | – | CC(Nc1cc(F)cc(F)c1)c1cc(C(=O)N(C)C)cc2c(=O)cc(N3CCOCC3)oc12 (racemic) [Example 3.06, 8-(1-(3,5-difluorophenylamino)ethyl)-N,N-dimethyl-2-morpholino-4-oxo-4H-chromene-6-carboxamide]
– | 8.15 | – | CC(Nc1cccc(F)c1)c1cc(C(=O)N(C)C)cc2c(=O)cc(N3CCOCC3)oc12 (centres unmarked) [Example 3.12, 8-(1-(3-fluorophenylamino)ethyl)-N,N-dimethyl-2-morpholino-4-oxo-4H-chromene-6-carboxamide]
